Paper PMC11196219

Tested on: non-transfected 293T cells

O=CC(CC1CCNC1=O)NC(=O)C(CC1CCCCC1)NC(=O)c1cc2ccccc2[nH]1 (stereo not shown)
CC50: 51 µM
